The results in this text go back to patent US8026368B2, “Hydrazide compounds and thrombopoietin receptor activators” (Nissan Chemical Industries, Ltd., priority 2005, dated 2011).

Sequences of proteins named here, by UniProt entry; tags and fusion partners are left off. Residues count along the entry.
UniProt P40238, 26-635 limits assumed: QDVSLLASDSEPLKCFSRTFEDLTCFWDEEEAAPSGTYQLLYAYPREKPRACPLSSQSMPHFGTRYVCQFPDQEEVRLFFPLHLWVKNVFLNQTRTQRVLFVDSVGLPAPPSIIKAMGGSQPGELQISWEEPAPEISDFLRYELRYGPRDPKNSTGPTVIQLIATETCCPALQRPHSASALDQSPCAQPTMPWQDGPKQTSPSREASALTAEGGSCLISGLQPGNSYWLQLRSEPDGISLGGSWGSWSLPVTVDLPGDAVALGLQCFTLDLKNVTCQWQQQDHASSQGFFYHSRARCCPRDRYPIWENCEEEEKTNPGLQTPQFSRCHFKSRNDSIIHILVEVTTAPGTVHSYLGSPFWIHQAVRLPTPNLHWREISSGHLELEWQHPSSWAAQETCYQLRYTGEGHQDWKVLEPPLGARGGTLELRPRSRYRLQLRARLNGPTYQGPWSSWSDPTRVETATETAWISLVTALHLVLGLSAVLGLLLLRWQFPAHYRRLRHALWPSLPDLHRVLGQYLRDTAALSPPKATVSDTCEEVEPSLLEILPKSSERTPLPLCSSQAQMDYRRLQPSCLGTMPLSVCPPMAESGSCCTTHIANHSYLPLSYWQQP

In the assay the target is human thrombopoietin receptor (c-mpl) (Homo sapiens, UniProt P40238). Description: Stimulation of proliferation of thrombopoietin-dependent cell line UT7/EPO-mpl (WST-8). To be noted: human leukemic cell line UT-7/EPO-mpl, 4 days incubation, WST-8, relative to 10 ng/mL TPO. Here is the method:
The responses of thrombopoietin receptor to the compounds of the present invention prepared in the Synthetic Examples were assayed using a human leukemic cell line, UT7/EPO-mpl.
UT7/EPO-mpl is a stable transformed cell line obtained by introducing into human leukemic cell line UT7/EPO a vector that induces expression of human thrombopoietin receptor (c-mpl) under control of cytomegalovirus immediate-early promoter by the method of Takatoku et al. (J. Biol. Chem., 272:7259-7263 (1997)). […] These two cell lines were subcultured in IMDM (GIBCO) containing 10% fetal bovine serum (Thermo Electron or BioWest) using a CO2 incubator (5% CO2, 37° C.).
The subcultured cells described above were washed twice with PBS and suspended in IMDM containing 10% fetal bovine serum at a cell density of 6×10^4 cells/ml. The cell suspension was transferred to a 96-well tissue culture plate (CORNING) in 100-μl aliquots. Then either thrombopoietin (Pepro Tech EC) or the compounds of the Synthetic Examples dissolved in dimethyl sulfoxide were diluted 83-fold with IMDM containing 10% fetal bovine serum and added to the aforementioned cell suspension in 20-μl aliquots. The cell suspension was incubated in a CO2 incubator (5% CO2, 37° C.) for 4 days. […] The formazan pigment generated was detected by measuring the absorbance at 450 nm with a 96-well microplate reader (Nihon Molecular Devices, Spectramax 190). […]

As for `CC1=NN(c2ccc(C)c(C)c2)C(=O)C1=C(C)NNC(=O)c1ccc(C(=O)NC(C)C)s1`, the “EC50 (concentration that yields a growth rate corresponding to 50% of the growth observed in the presence of 10 ng/mL TPO)” value stood at 2.3 ng/mL. In the case of `CC1=NN(c2ccc(C(F)(F)F)cc2)C(=O)/C1=C(/C)NNC(=O)c1ccc(C(=O)NCc2cccnc2)s1`, the “EC50 (concentration that yields a growth rate corresponding to 50% of the growth observed in the presence of 10 ng/mL TPO)” value is recorded as 0.26 ng/mL.
